Measured values from BindingDB's records for doi:10.1021/acs.jmedchem.8b01298 (Astrazeneca, 2019).

Sequences of proteins named here, by UniProt entry; tags and fusion partners are left off. A change or cut given only in a name is not applied to a line headed by its entry.
UniProt P27986, whole entry: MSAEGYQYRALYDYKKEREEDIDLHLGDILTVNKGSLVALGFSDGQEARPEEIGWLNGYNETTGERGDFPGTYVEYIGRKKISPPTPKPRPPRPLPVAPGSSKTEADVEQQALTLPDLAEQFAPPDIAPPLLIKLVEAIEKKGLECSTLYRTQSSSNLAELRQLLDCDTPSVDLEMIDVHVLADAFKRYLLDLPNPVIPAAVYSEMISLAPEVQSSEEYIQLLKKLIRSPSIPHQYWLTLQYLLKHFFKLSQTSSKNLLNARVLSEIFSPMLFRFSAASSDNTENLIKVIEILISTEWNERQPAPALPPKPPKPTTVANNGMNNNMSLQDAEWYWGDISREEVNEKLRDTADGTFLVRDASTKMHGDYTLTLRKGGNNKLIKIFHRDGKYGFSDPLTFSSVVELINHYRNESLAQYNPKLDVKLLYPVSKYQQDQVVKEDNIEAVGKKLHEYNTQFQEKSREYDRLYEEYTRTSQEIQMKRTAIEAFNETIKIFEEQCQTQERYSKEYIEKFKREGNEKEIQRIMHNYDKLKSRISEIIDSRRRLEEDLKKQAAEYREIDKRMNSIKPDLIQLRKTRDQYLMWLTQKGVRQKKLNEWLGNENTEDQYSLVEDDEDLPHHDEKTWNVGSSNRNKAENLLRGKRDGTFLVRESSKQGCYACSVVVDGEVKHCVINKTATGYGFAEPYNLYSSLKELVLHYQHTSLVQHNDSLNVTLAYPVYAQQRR
UniProt O00329: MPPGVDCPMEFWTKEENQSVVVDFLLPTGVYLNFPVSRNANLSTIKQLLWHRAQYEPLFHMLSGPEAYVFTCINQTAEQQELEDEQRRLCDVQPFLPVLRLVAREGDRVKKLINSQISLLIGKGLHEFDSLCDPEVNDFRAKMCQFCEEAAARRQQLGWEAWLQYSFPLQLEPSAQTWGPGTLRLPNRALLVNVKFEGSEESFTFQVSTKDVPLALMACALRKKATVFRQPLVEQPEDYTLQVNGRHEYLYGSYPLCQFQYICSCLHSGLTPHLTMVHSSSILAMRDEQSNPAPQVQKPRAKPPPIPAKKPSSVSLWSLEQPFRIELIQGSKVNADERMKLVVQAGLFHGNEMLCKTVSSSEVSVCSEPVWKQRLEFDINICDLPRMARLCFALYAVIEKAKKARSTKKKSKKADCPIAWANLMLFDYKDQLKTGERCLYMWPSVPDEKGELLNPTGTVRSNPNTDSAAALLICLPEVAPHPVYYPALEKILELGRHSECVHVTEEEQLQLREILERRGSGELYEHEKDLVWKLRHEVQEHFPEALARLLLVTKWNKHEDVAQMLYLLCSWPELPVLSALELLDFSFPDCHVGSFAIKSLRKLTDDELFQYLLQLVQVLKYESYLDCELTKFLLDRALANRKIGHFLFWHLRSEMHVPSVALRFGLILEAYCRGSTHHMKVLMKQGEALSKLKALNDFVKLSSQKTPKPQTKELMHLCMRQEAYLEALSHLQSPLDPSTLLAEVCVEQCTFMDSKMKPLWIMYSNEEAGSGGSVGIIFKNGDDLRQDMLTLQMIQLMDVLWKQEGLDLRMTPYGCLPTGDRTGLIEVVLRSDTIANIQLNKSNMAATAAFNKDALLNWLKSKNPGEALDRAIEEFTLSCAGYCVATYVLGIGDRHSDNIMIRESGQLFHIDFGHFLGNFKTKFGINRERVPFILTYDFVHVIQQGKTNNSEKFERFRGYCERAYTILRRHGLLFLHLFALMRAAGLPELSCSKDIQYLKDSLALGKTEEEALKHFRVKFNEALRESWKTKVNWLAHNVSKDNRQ

Target: Phosphatidylinositol 3-kinase regulatory subunit alpha/4,5-bisphosphate 3-kinase catalytic subunit delta isoform (Homo sapiens, UniProt P27986+O00329)
Test: Inhibition of N-terminal His6-tagged recombinant full length human p110delta/untagged recombinant full length human p85alpha expressed in baculovirus infected Sf21 insect cells after 80 mins by fluorescence polarization assay

Structure (SMILES): C[C@H](Nc1ncnc(N)c1C#N)c1cc2ncc(Cl)n2nc1-c1ccccc1 [US10208066, Compound 4]
- IC50: 0.3 nM
